From US8227511B2, “Substituted chromanol derivatives and their use” (Bayer Intellectual Property GmbH, priority 2006, dated 2012)

The chains behind the UniProt entries cited, without tags or fusion partners. Residues count along the entry.
UniProt P11597, 18-493 limits assumed: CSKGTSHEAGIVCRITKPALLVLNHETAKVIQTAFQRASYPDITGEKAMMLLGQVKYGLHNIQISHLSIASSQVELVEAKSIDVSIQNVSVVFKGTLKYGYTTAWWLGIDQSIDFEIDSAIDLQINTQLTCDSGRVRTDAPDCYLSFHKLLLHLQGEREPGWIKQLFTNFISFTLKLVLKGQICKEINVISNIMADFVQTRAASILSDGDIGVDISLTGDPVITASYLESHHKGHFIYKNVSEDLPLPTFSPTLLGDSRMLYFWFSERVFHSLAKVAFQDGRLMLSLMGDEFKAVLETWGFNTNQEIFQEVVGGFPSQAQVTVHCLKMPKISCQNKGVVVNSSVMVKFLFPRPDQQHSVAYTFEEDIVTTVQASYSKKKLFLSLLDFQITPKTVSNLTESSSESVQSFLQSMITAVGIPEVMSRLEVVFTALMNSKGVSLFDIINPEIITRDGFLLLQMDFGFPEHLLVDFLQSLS

What was measured:
[1] = target: T1, CETP (Homo sapiens, UniProt P11597); experiment: CETP fluorescence test with enriched CETP; details: read-out: IC50 [nM] fluorescence test; enriched CETP fraction from human plasma; transfer of fluorescent cholesterol ester between liposomes; 37° C. for 4 h
Description: (§1) CETP is obtained in partially purified form from human plasma by differential centrifugation and column chromatography and used for the test. To this end, human plasma is adjusted to a density of 1.21 g per ml using NaBr and centrifuged at 4° C. at 50 000 rpm for 18 h. The bottom fraction (d>1.21 g/ml) is applied to a Phenyl-Sepharose 26/10 HP fast flow-column (Pharmacia), washed with PBS buffer and then eluted with distilled water. 10 parts of PBS buffer and 1% (w/v) BSA are added to the eluate. The CETP-active fractions are pooled.
Measurement of the CETP-catalyzed transfer of a fluorescent cholesterol ester between liposomes [modified according to the procedure of Bisgaier et al., J. Lipid Res. 34, 1625 (1993)]:
For the production of the donor liposomes, 1 mg of cholesteryl 4,4-difluoro-5,7-dimethyl-4-bora-3a,4a-diaza-s-indacene-3-dodecanoate (cholesteryl BODIPY® FL C12, Molecular Probes) is dissolved in 2 ml of chloroform with 5.35 mg of triolein and 6.67 mg of phosphatidylcholine. The solvent is removed at medium temperature in a SpeedVac and the residue is dried under high vacuum for 1 h. […]
The change in the fluorescence at 485/535 nm is a measure of the CE transfer; the inhibition of the transfer in comparison to the control batch without substance is determined.

[2] = target: T1, CETP; experiment: CETP-SPA test; details: read-out: IC50 [nM] SPA test; transfer of 3H-cholesterol ester from human HDL to biotinylated LDL; 37° C. for 18 h
Description: as §1
For testing of the CETP activity, the transfer of ^3H-cholesterol ester from human HD lipoproteins to biotinylated LD lipoproteins is measured. The reaction is ended by addition of streptavidin-SPA® beads (Amersham) and the transferred radioactivity is determined directly in a liquid scintillation counter.
In the test batch, 10 μl of HDL-3H-cholesterol ester (about 50 000 cpm) are incubated at 37° C. for 18 h with 10 μl of biotin-LDL (Amersham) in 50 mM Hepes/0.15 M NaCl/0.1% bovine serum albumin (RSA)/0.05% NaN3 pH 7.4 containing 10 μl of CETP (1 mg/ml) and 3 μl of a solution of the substance to be tested (dissolved in 10% DMSO/1% RSA). 200 μl of the SPA-streptavidin bead solution (TRKQ 7005) are then added, incubated further with shaking for 1 h and then measured in a scintillation counter. […]

CC(C)c1cc2c(c(-c3ccc(F)cc3)c1[C@@H](F)c1ccc(C(F)(F)F)cc1)[C@@H](O)CC1(CC1)O2
IC50 [1]: 14 nM
IC50 [2]: 6 nM
